# Results from ChEMBL document CHEMBL3352447, “Structural development studies of PPARs ligands based on tyrosine scaffold” (Eur J Med Chem, 2015).
# Protein sequences, listed by entry. Tags and fused reporters are not part of them. Lines headed by an entry give the natural chain unless they say otherwise; changes in a name come on top.
# UniProt P37231: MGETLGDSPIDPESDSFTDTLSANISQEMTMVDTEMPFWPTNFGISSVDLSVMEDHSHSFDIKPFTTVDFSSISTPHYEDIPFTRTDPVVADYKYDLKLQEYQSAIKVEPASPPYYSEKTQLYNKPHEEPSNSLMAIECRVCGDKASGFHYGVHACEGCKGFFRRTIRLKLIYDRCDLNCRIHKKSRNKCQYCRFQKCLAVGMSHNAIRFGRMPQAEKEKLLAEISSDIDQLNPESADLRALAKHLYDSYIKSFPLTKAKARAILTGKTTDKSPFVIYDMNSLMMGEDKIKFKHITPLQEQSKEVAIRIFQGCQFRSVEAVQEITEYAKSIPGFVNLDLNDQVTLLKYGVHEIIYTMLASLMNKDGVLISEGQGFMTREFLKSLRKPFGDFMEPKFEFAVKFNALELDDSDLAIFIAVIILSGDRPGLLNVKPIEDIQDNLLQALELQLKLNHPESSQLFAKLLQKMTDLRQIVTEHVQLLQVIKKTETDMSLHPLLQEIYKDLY
# Activity calls are given as the source filed them. The calls are words filed in the database; no cut-off is given here.
# Target: Peroxisome proliferator-activated receptor gamma (Homo sapiens, UniProt P37231)
# Experiment: Agonist activity at human GAL4-PPARgamma ligand binding domain expressed in human HepG2 cells assessed as maximum fold induction by luciferase reporter gene assay relative to rosiglitazone
# Assay type: cell-based
# Procedure, shortened: (§1)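 HepG2 cells grown in MEM with 10% heat-inactivated FBS, penicillin/streptomycin, 37 °C, 5% CO2. 10^5 cells/well seeded, transfected after 24 h by calcium phosphate with Gal4-PPAR LBD expression plasmid (30 ng), pGal5TKpGL3 luciferase reporter (100 ng) and pCMVbgal (250 ng). Ligand added 4 h post-transfection for 20 h, in triplicate. Luciferase read in cell extracts, with β-galactosidase measured using ONPG.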
row,Emax,Structure (SMILES)
1,inactive,CCCc1c(OCCCOc2ccc(OCC(=O)O)cc2)ccc(C(C)=O)c1O

# Target: T1, Peroxisome proliferator-activated receptor alpha (Homo sapiens) (UniProt Q07869)
# T1 sequence (whole entry): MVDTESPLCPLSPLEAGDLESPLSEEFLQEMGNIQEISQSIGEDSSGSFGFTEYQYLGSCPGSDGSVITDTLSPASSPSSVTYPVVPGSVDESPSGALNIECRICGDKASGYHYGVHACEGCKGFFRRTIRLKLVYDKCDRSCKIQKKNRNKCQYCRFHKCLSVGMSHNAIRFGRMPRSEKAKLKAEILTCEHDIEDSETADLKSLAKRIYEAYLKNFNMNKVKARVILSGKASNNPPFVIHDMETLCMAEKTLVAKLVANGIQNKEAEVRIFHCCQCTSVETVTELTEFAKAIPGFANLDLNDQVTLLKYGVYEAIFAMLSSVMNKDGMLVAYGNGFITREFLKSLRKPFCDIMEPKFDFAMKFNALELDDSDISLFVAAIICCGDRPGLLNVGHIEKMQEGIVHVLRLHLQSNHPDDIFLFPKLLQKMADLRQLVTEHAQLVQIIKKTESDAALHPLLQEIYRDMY
# Experiment: Agonist activity at human GAL4-PPARalpha ligand binding domain expressed in human HepG2 cells assessed as maximum fold induction by luciferase reporter gene assay relative to Wy-14643
# Assay type: cell-based
# Procedure, shortened: as §1
row,Emax,Structure (SMILES)
1,inactive,CC(=O)/C=C(\C)NC(Cc1ccc(OCCOc2ccc(/C=C/c3ccccc3)cc2)cc1)C(=O)O (centres undefined)
2,inactive,CCCc1c(OCCCOc2ccc(OCC(=O)O)cc2)ccc(C(C)=O)c1O
3,inactive,C/C(=C\C(=O)c1ccccc1)NC(Cc1ccc(OCCCOc2ccc(/N=N/c3ccc([N+](=O)[O-])cc3)cc2)cc1)C(=O)O (centres undefined)
4,inactive,C/C(=C\C(=O)c1ccccc1)NC(Cc1ccc(OCCCOc2ccc(/N=N/c3ccc(Cl)cc3)cc2)cc1)C(=O)O (centres undefined)
5,inactive,O=C(/C=C/c1ccccc1)NC(Cc1ccc(OCCOc2ccc(/C=C/c3ccccc3)cc2)cc1)C(=O)O (centres undefined)
6,inactive,C/C(=C\C(=O)c1ccccc1)NC(Cc1ccc(OCCOc2ccc(/C=C/c3ccc(Cl)cc3)cc2)cc1)C(=O)O (centres undefined)
7,inactive,C/C(=C\C(=O)c1ccccc1)NC(Cc1ccc(OCCCOc2ccc(/C=C/c3ccc(Cl)cc3)cc2)cc1)C(=O)O (centres undefined)
8,inactive,C/C(=C\C(=O)c1ccccc1)NC(Cc1ccc(OCCCOc2ccc(/C=C/c3ccc(C(F)(F)F)cc3)cc2)cc1)C(=O)O (centres undefined)
9,inactive,C/C(=C\C(=O)c1ccccc1)NC(Cc1ccc(OCCOc2ccc(/C=C/c3ccc(C(F)(F)F)cc3)cc2)cc1)C(=O)O (centres undefined)
10,inactive,C/C(=C\C(=O)c1ccccc1)NC(Cc1ccc(OCCOc2ccc(/C=C/c3ccc(C)cc3)cc2)cc1)C(=O)O (centres undefined)
11,inactive,C/C(=C\C(=O)c1ccccc1)NC(Cc1ccc(OCCOc2ccc(/N=N/c3ccccc3)cc2)cc1)C(=O)O (centres undefined)
12,inactive,COc1ccc(/N=N/c2ccc(OCCCOc3ccc(CC(N/C(C)=C/C(=O)c4ccccc4)C(=O)O)cc3)cc2)cc1 (centres undefined)
13,inactive,C/C(=C\C(=O)c1ccccc1)NC(Cc1ccc(OCCOc2ccc(/N=N/c3ccc(Cl)cc3)cc2)cc1)C(=O)O (centres undefined)
